Source: patent publication EP4603105A1, “PHARMACEUTICAL COMPOSITION CONTAINING CYCLIC COMPOUND HAVING SELECTIVE KRAS INHIBITORY EFFECT AGAINST HRAS AND NRAS” (CHUGAI SEIYAKU KABUSHIKI KAISHA, priority 2022, dated 2024)

Protein sequences, listed by entry. Tags and fused reporters are not part of them.
UniProt P01112, whole entry: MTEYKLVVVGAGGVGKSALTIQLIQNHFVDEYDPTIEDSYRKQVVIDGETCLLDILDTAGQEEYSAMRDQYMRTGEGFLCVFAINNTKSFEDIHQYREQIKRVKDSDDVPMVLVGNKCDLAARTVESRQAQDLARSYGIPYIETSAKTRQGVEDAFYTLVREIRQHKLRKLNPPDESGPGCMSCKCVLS

The molecules below were run against HRAS wild-type protein (Homo sapiens, UniProt P01112) (assay: Binding to HRAS by surface plasmon resonance (SPR), KD and KD ratio to KRAS). Conditions: ratio of KD for HRAS wild-type protein to KD for KRAS.

SMILES	HRAS /KRAS
CCCOC[C@H]1C(=O)N[C@@H]([C@@H](C)CC)C(=O)N2CCC[C@H]2C(=O)N(C)[C@H]2C/C=C\CCN(C2=O)[C@@H](CC2CCC(F)(F)CC2)C(=O)N(C)CC(=O)N[C@@H](CCc2ccc(C(F)(F)F)c(OC)c2)C(=O)N2C[C@H](OCC)C[C@H]2C(=O)N(C)C2(CCC2)C(=O)N(C)[C@@H](C2CCCC2)C(=O)N(C)[C@H](C(=O)N(C)C)CC(=O)N1C	B (a compound having 3 or more and less than 10 is denoted as B)
CC[C@H](C)[C@@H]1NC(=O)[C@H](COC)N(C)C(=O)C[C@@H](C(=O)N(CC)CC)N(C)C(=O)[C@H](C2CCCC2)N(C)C(=O)C2(CC(C)(C)C2)NC(=O)[C@@H]2C[C@H](C)CN2C(=O)[C@H](CCc2ccc(C(F)(F)F)c(Cl)c2)NC(=O)CN(C)C(=O)[C@H](Cc2ccc(C)cc2)N2CC/C=C\C[C@@H](C2=O)N(C)C(=O)CN(C)C1=O	A (a compound having 10 or more and less than 20 is denoted as A)
CCOCC1C(=O)NC(C(C)CC)C(=O)N(C2CC2)CC(=O)N(C)C2CC=CCCN(C2=O)C(CC2CCCCC2)C(=O)N(C)CC(=O)NC(CCc2ccc(C(F)(F)F)c(OC)c2)C(=O)N2CC(C)CC2C(=O)N(C)C2(CCC2)C(=O)N(C)C(C2CCCC2)C(=O)N(C)C(C(=O)N(C)C)CC(=O)N1C (centres unmarked)	A (a compound having 10 or more and less than 20 is denoted as A)
CCCOC[C@H]1C(=O)N[C@@H]([C@@H](C)CC)C(=O)N(C)CC(=O)N(C)[C@H]2C/C=C\CCN(C2=O)[C@@H](Cc2ccc(C)cc2)C(=O)N(C)CC(=O)N[C@@H](CCc2ccc(C(F)(F)F)c(OC)c2)C(=O)N2C[C@@H](C)C[C@H]2C(=O)NC2(CC(C)(C)C2)C(=O)N(C)[C@@H](C2CCCC2)C(=O)N(C)[C@H](C(=O)N(C)C)CC(=O)N1C	B (a compound having 3 or more and less than 10 is denoted as B)

Same assay, conditions: ratio of KD with respect to HRAS wild-type protein to KD with respect to KRAS

SMILES	HRAS /KRAS
CCO[C@@H]1C[C@H]2C(=O)NC3(CCC3)C(=O)N(C)[C@@H](C3CCCC3)C(=O)N(C)[C@H](C(=O)N(C)C)CC(=O)N(C)[C@@H](CC(C)C)C(=O)N[C@@H]([C@@H](C)CC)C(=O)N(C)CC(=O)N(C)[C@H]3C/C=C\CCN(C3=O)[C@@H](Cc3ccc(F)cc3C)C(=O)N(C)CC(=O)N[C@@H](CCc3cc(F)c(Cl)c(F)c3)C(=O)N2C1	B (a compound having 3 or more and less than 10 is denoted as B)
CCC[C@H]1C(=O)N[C@@H]([C@@H](C)CC)C(=O)N(C)CC(=O)N(C)[C@H]2C/C=C\CCN(C2=O)[C@@H](Cc2ccc(C(F)(F)F)cc2)C(=O)N(C)CC(=O)N[C@@H](CCc2cc(F)c(C(F)(F)F)c(F)c2)C(=O)N2C[C@H](OCC)C[C@H]2C(=O)NC2(CCC2)C(=O)N(C)[C@@H](C2CCCC2)C(=O)N(C)[C@H](C(=O)N2CCCCC2)CC(=O)N1C	A (a compound having 10 or more and less than 20 is denoted as A)
CC[C@H](C)[C@@H]1NC(=O)[C@H](CC)N(C)C(=O)C[C@@H](C(=O)N2CCOCC2)N(C)C(=O)[C@H](C2CCCC2)N(C)C(=O)C2(CCC2)NC(=O)[C@@H]2CCCN2C(=O)[C@H](CCc2cc(F)c(C(F)(F)F)c(F)c2)NC(=O)CN(C)C(=O)[C@H](Cc2ccc(C(F)(F)F)cc2)N2C[C@H](C)[C@H](C)C[C@@H](C2=O)N(C)C(=O)[C@@H]2CCN2C1=O	B (a compound having 3 or more and less than 10 is denoted as B)
CCC[C@H]1C(=O)N[C@@H]([C@@H](C)CC)C(=O)N(C)CC(=O)N(C)[C@H]2C/C=C\CCN(C2=O)[C@@H](Cc2ccc(C(F)(F)F)cc2)C(=O)N(C)CC(=O)N[C@@H](CCc2ccc(C(F)(F)F)c(OC)c2)C(=O)N2C[C@H](OCC)C[C@H]2C(=O)NC2(CCC2)C(=O)N(C)[C@@H](C2CCCC2)C(=O)N(C)[C@H](C(=O)N(C)C)CC(=O)N1C	B (a compound having 3 or more and less than 10 is denoted as B)
CCCOC[C@H]1C(=O)N[C@@H]([C@@H](C)CC)C(=O)N(C)CC(=O)N(C)[C@H]2C/C=C\CCN(C2=O)[C@@H](Cc2ccc(C)cc2)C(=O)N(C)CC(=O)N[C@@H](CCc2cc(F)c(C(F)(F)F)c(F)c2)C(=O)N2C[C@H](OCC)C[C@H]2C(=O)NC2(CC(C)(C)C2)C(=O)N(C)[C@@H](C2CCCC2)C(=O)N(C)[C@H](C(=O)N(C)C)CC(=O)N1C	B (a compound having 3 or more and less than 10 is denoted as B)
CCOC1CC2C(=O)NC3(CCC3)C(=O)N(C)C(C3CCCC3)C(=O)N(C)C(C(=O)N(C)C)CC(=O)N(C)C(Cc3ccccc3)C(=O)NC(C(C)CC)C(=O)N(C)CC(=O)N(C)C3CCCCCN(C3=O)C(Cc3ccc(F)cc3)C(=O)N(C)CC(=O)NC(CCc3cc(F)c(C(F)(F)F)c(F)c3)C(=O)N2C1 (centres unmarked)	B (a compound having 3 or more and less than 10 is denoted as B)
CCO[C@@H]1C[C@H]2C(=O)NC3(CCC3)C(=O)N(C)[C@@H](C3CCCC3)C(=O)N(C)[C@H](C(=O)N3CCCC3)CC(=O)N(C)[C@@H](CC(C)C)C(=O)N[C@@H]([C@@H](C)CC)C(=O)N(C)CC(=O)N(C)[C@H]3C/C=C\CCN(C3=O)[C@@H](Cc3ccc(C)cc3)C(=O)N(C)CC(=O)N[C@@H](CCc3cc(F)c(C(F)(F)F)c(F)c3)C(=O)N2C1	A (a compound having 10 or more and less than 20 is denoted as A)
CCO[C@@H]1C[C@H]2C(=O)NC3(CCC3)C(=O)N(C)[C@@H](C3CCCC3)C(=O)N(C)[C@H](C(=O)N(C)C)CC(=O)N(C)[C@@H](CCOC)C(=O)N[C@@H]([C@@H](C)CC)C(=O)N(C)CC(=O)N(C)[C@H]3CCCCCN(C3=O)[C@@H](Cc3ccc(F)cc3)C(=O)N(C)CC(=O)N[C@@H](CCc3cc(F)c(C(F)(F)F)c(F)c3)C(=O)N2C1	B (a compound having 3 or more and less than 10 is denoted as B)
CCO[C@@H]1C[C@H]2C(=O)NC3(CCC3)C(=O)N(C)[C@@H](C3CCCC3)C(=O)N(C)[C@H](C(=O)N(C)C)CC(=O)N(C)[C@@H](CC3CCCC3)C(=O)N[C@@H]([C@@H](C)CC)C(=O)N(C)CC(=O)N(C)[C@H]3C/C=C\CCN(C3=O)[C@@H](Cc3ccc(C)cc3)C(=O)N(C)CC(=O)N[C@@H](CCc3cc(F)c(Cl)c(F)c3)C(=O)N2C1	A (a compound having 10 or more and less than 20 is denoted as A)
CCO[C@@H]1C[C@H]2C(=O)NC3(CCC3)C(=O)N(C)[C@@H](C3CCCC3)C(=O)N(C)[C@H](C(=O)N(C)C)CC(=O)N(C)[C@@H](CC)C(=O)N[C@@H]([C@@H](C)CC)C(=O)N(C)CC(=O)N(C)[C@H]3C/C=C\CCN(C3=O)[C@@H](Cc3ccc(C(F)(F)F)cc3)C(=O)N(C)CC(=O)N[C@@H](CCc3ccc(C(F)(F)F)c(OC)c3)C(=O)N2C1	A (a compound having 10 or more and less than 20 is denoted as A)
CCO[C@@H]1C[C@H]2C(=O)NC3(CCC3)C(=O)N(C)[C@@H](C(CC)CC)C(=O)N(C)[C@H](C(=O)N(C)C)CC(=O)N(C)[C@@H](CC(C)C)C(=O)N[C@@H]([C@@H](C)CC)C(=O)N(C)CC(=O)N(C)[C@H]3C/C=C\CCN(C3=O)[C@@H](Cc3ccc(C(F)(F)F)cc3)C(=O)N(C)CC(=O)N[C@@H](CCc3cc(F)c(Cl)c(F)c3)C(=O)N2C1	A (a compound having 10 or more and less than 20 is denoted as A)
CCO[C@@H]1C[C@H]2C(=O)NC3(CCC3)C(=O)N(C)[C@@H](C(CC)CC)C(=O)N(C)[C@H](C(=O)N(C)C)CC(=O)N(C)[C@@H](CC(C)C)C(=O)N[C@@H]([C@@H](C)CC)C(=O)N(C)CC(=O)N(C)[C@H]3C/C=C\CCN(C3=O)[C@@H](CC3CCC(F)(F)CC3)C(=O)N(C)CC(=O)N[C@@H](CCc3cc(F)c(C(F)(F)F)c(F)c3)C(=O)N2C1	A (a compound having 10 or more and less than 20 is denoted as A)
CCOC1CC2C(=O)NC3(CCC3)C(=O)N(C)C(C3CCCC3)C(=O)N(C)C(C(=O)N(C)C)CC(=O)N(C)C(Cc3cccs3)C(=O)NC(C(C)CC)C(=O)N(C)CC(=O)N(C)C3CCCCCN(C3=O)C(Cc3ccc(F)cc3)C(=O)N(C)CC(=O)NC(CCc3cc(F)c(C(F)(F)F)c(F)c3)C(=O)N2C1 (centres unmarked)	B (a compound having 3 or more and less than 10 is denoted as B)
CCO[C@@H]1C[C@H]2C(=O)NC3(CCC3)C(=O)N(C)[C@@H](C3CCCC3)C(=O)N(C)[C@H](C(=O)N3CCOCC3)CC(=O)N(C)[C@@H](CC(C)C)C(=O)N[C@@H]([C@@H](C)CC)C(=O)N(C)CC(=O)N(C)[C@H]3C/C=C\CCN(C3=O)[C@@H](Cc3ccc(C)cc3)C(=O)N(C)CC(=O)N[C@@H](CCc3cc(F)c(C(F)(F)F)c(F)c3)C(=O)N2C1	A (a compound having 10 or more and less than 20 is denoted as A)
CCOC1CC2C(=O)NC3(CCC3)C(=O)N(C)C(C3CCCC3)C(=O)N(C)C(C(=O)N3CCOCC3)CC(=O)N(C)C(Cc3ccc(Cl)c(Cl)c3)C(=O)NC(C(C)CC)C(=O)N(C)CC(=O)N(C)C3CCCCCN(C3=O)C(Cc3ccc(C(F)(F)F)cc3)C(=O)N(C)CC(=O)NC(CCc3cc(F)c(C(F)(F)F)c(F)c3)C(=O)N2C1 (centres unmarked)	A (a compound having 10 or more and less than 20 is denoted as A)
CCO[C@@H]1C[C@H]2C(=O)NC3(CCC3)C(=O)N(C)[C@@H](C3CCCC3)C(=O)N(C)[C@H](C(=O)N(C)C)CC(=O)N(C)[C@@H](CC3CC3)C(=O)N[C@@H]([C@@H](C)CC)C(=O)N(C)CC(=O)N(C)[C@H]3CCCCCN(C3=O)[C@@H](Cc3ccc(F)cc3)C(=O)N(C)CC(=O)N[C@@H](CCc3cc(F)c(C(F)(F)F)c(F)c3)C(=O)N2C1	A (a compound having 10 or more and less than 20 is denoted as A)
CC[C@H](C)[C@@H]1NC(=O)[C@H](CC2CC2)N(C)C(=O)C[C@@H](C(=O)N(C)C)N(C)C(=O)[C@H](C2CCCC2)N(C)C(=O)C2(CCC2)NC(=O)[C@H](CC(F)F)N(C)C(=O)[C@H](CCc2cc(F)c(C(F)(F)F)c(F)c2)NC(=O)CN(C)C(=O)[C@H](Cc2ccc(C(F)(F)F)cc2)N2CC/C=C\C[C@@H](C2=O)N(C)C(=O)CN(C)C1=O	A (a compound having 10 or more and less than 20 is denoted as A)
CCO[C@@H]1C[C@H]2C(=O)NC3(CCC3)C(=O)N(C)[C@@H](C3CCCC3)C(=O)N(C)[C@H](C(=O)N(C)C)CC(=O)N(C)[C@@H](CC3CCC3)C(=O)N[C@@H]([C@@H](C)CC)C(=O)N(C)CC(=O)N(C)[C@H]3C/C=C\CCN(C3=O)[C@@H](CC3CCC(F)(F)CC3)C(=O)N(C)CC(=O)N[C@@H](CCc3cc(F)c(C(F)(F)F)c(F)c3)C(=O)N2C1	A (a compound having 10 or more and less than 20 is denoted as A)
CC[C@H](C)[C@@H]1NC(=O)[C@H](CC)N(C)C(=O)C[C@@H](C(=O)N(C)C)N(C)C(=O)[C@H](C2CCCC2)N(C)C(=O)C2(CCC2)NC(=O)[C@H](COC)N(C)C(=O)[C@H](CCc2cc(F)c(C(F)(F)F)c(F)c2)NC(=O)CN(C)C(=O)[C@H](Cc2ccc(C(F)(F)F)cc2)N2CC/C=C\C[C@@H](C2=O)N(C)C(=O)CN(C)C1=O	B (a compound having 3 or more and less than 10 is denoted as B)
